This is an account of results in PubChem BioAssay AID2023 (NMMLSC, 2009).

This is a selection; strong and weak results do not stand in their true shares. Some tests of the compounds listed are not included; inactive here does not mean inactive elsewhere. Calls of active or inactive are those of the source.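 The calls were made as follows: active = GFP response vs DMSO above a set limit, about the screen mean plus 3 SD (cut at about 150% in these data); inconclusive = under 70 cell events counted for the yeast strain; inactive = the rest.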

The assay in a line: modulators of LAP4-GFP expression in yeast, primary screen, S. cerevisiae, multiplex flow cytometry, MLPCN library (AID 2023). As to conditions: 3 h, at 10 µM, active compounds read high, median GFP as percent of DMSO wells.
For `CN(C)C1(CNC(=O)c2ccc(Br)cc2)CCCCC1`, the GFP response vs DMSO is inactive: 98.4%. Under `COc1cc(C(=O)NCC2(N(C)C)CCCCC2)c([N+](=O)[O-])cc1OC` stands inactive: 91.9%; under `COc1ccc(Cl)cc1C(=O)NCC1(N(C)C)CCCCC1`, inactive: 104%.

With `COc1cccc(C(=O)NCC2(N3CCCCC3)CCCCC2)c1`, the GFP response vs DMSO was inactive: 97.8%. On to `O=C(NCC1(N2CCCCC2)CCCCC1)c1cccc(Cl)c1`, for which the GFP response vs DMSO is inactive: 96.5%. Under `O=C(OC1CN2CCC1CC2)C(CO)(c1ccccc1)c1ccccc1` (centres undefined) stands inactive: 100%; under `COc1ccc(Br)c(C(=O)NCC2(N3CCCCC3)CCCCC2)c1`, inactive: 97.6%. For the compound `CC(C)Oc1ccc(C(=O)NCC2(N(C)C)CCCCC2)cc1`, the GFP response vs DMSO was inactive: 94.6%. Under `CN(C)c1cccc(C(=O)NCC2(N(C)C)CCCCC2)c1` stands inactive: 107%; under `O=C(NCC1(N2CCCCC2)CCCCC1)c1cc([N+](=O)[O-])ccc1Cl`, inactive: 98.8%; under `CN1[C@@H]2CC[C@H]1CC(OC(=O)C(O)(c1ccccc1)c1ccccc1)C2` (some centres undefined), inactive: 102%. Under `COc1cc(SC)ccc1C(=O)NCC1(N(C)C)CCCCC1` stands inactive: 87.2%; under `CCN(CC)CC(C)C(C)OC(=O)C(O)(c1ccccc1)c1ccccc1` (centres undefined), inactive: 111%.

`CC(C)N1C(=O)CC2(CCN(CCOC(=O)C(O)(c3ccccc3)c3ccccc3)CC2)C1=O`: the GFP response vs DMSO was inactive: 97.4%.

Regarding `Cc1ccc(C(=O)NCC2(N3CCCCC3)CCCCC2)cc1`, the GFP response vs DMSO was inactive: 93%. The same measure for `CN(C)c1ccc(C(=O)NCC2(N(C)C)CCCCC2)cc1`: inactive: 98.7%; for `CN(C)C1CCCC1OC(=O)C(O)(c1ccccc1)c1ccccc1` (centres undefined): inactive: 95.2%; for `Cc1ccccc1C(=O)NCC1(N2CCCCC2)CCCCC1`: inactive: 98.8%.

As for `O=C(NCC1(N2CCCCC2)CCCCC1)c1cc(F)c(F)cc1Cl`, the GFP response vs DMSO is inactive: 93.5%. The same measure for `C=CCN1CCN(CCOC(=O)C(O)(c2ccccc2)c2ccccc2)CC1`: inactive: 99.9%. The same measure for `COc1ccc(C(=O)NCC2(N(C)C)CCCCC2)cc1`: inactive: 93.8%; for `O=C(NCC1(N2CCCCC2)CCCCC1)c1cccc(Br)c1`: inactive: 100%; for `CCN1CCCC(OC(=O)C2(O)c3ccccc3C=Cc3ccccc32)C1` (centres undefined): inactive: 86.4%. Under `Cc1cc(C(=O)NCC2(N3CCCCC3)CCCCC2)ccc1[N+](=O)[O-]` stands inactive: 75.1%.
